Publication PMC11194501 (Proceedings of the National Academy of Sciences of the …, 2024)

Columns and labels:
[1] = target: the molecule itself; assay: SEC-SAXS; 20 mM Tris-HCl pH 8.0, 150 mM NaCl, 1 mM 2-mercaptoethanol; self-association of Cep57N in low salt
[2] = target: T1, Cep57N (Cep57 residues 56 to 251) (human, UniProt Q86XR8 56-251); conditions: both partners purified
T1 construct: Cep57, human, residues 56 to 251, with the N-terminal coiled-coil domain (NTD); also called NTD; source: E. coli Rosetta 2, purified (Ni-NTA, gel filtration in 1 M NaCl)
T1 sequence (looked up): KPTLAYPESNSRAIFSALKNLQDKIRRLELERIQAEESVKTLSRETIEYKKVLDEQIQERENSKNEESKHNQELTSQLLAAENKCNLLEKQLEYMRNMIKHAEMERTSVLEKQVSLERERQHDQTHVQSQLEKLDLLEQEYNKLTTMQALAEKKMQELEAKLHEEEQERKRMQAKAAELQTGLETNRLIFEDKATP

[3] = target: the molecule itself

B1: Cep57N (Cep57 residues 56 to 251) (domain or fragment, human, UniProt Q86XR8 56-251, looked up)
chain: KPTLAYPESNSRAIFSALKNLQDKIRRLELERIQAEESVKTLSRETIEYKKVLDEQIQERENSKNEESKHNQELTSQLLAAENKCNLLEKQLEYMRNMIKHAEMERTSVLEKQVSLERERQHDQTHVQSQLEKLDLLEQEYNKLTTMQALAEKKMQELEAKLHEEEQERKRMQAKAAELQTGLETNRLIFEDKATP
notes: Cep57, human, residues 56 to 251 (N-terminal coiled-coil domain); Dimer in 150 mM salt by SEC-SAXS; also called NTD; N-terminal coiled-coil domain; source: E. coli Rosetta 2, purified (Ni-NTA, gel filtration in 1 M NaCl)
stoichiometry N [1]: 2

B2: Cep57C (Cep57 residues 334 to 433) (domain or fragment, human, UniProt Q86XR8 334-433, looked up)
chain: KQVSSRGGKSKKLSVTPPSSNGINEELSEVLQTLQDEFGQMSFDHQQLAKLIQESPTVELKDKLECELEALVGRMEAKANQITKVRKYQAQLEKQKLEKQ
notes: Cep57, human, residues 334 to 433, with the C-terminal coiled-coil domain (CTD); It was crystallised as His-Cep57C; also called CTD; source: E. coli Rosetta 2, purified (Ni-NTA, gel filtration in 1 M NaCl)
Kd [2]: 9.1 ± 1.2 µM
stoichiometry N [2]: 0.7 ± 0.1

B3: Cep57C (Cep57 residues 334 to 433) (domain or fragment, human, UniProt Q86XR8 334-433, looked up)
chain: KQVSSRGGKSKKLSVTPPSSNGINEELSEVLQTLQDEFGQMSFDHQQLAKLIQESPTVELKDKLECELEALVGRMEAKANQITKVRKYQAQLEKQKLEKQ
notes: Cep57, human, residues 334 to 433 (C-terminal coiled-coil domain); ordered residues in the crystal 354 to 428; The tag is named on the protein only for the crystal (His-Cep57C); also called CTD; C-terminal coiled-coil domain; source: E. coli Rosetta 2, purified (Ni-NTA, gel filtration in 1 M NaCl)
stoichiometry N [3]: 2

Where two headings read alike, the source gives them in different places.
